Laboratory results taken from US20200121677A1, “SUBSTITUTED 6,7-DIHYDROPYRAZOLO[1,5-a]PYRAZINES AS NEGATIVE ALLOSTERIC MODULATORS OF MGLUR2 RECEPTORS” (Janssen Pharmaceutica NV, priority 2014, published 2020).

Chains of the proteins cited; added tags and fusions are not shown. Residues count along the entry.
UniProt Q14416, 19-872 limits assumed: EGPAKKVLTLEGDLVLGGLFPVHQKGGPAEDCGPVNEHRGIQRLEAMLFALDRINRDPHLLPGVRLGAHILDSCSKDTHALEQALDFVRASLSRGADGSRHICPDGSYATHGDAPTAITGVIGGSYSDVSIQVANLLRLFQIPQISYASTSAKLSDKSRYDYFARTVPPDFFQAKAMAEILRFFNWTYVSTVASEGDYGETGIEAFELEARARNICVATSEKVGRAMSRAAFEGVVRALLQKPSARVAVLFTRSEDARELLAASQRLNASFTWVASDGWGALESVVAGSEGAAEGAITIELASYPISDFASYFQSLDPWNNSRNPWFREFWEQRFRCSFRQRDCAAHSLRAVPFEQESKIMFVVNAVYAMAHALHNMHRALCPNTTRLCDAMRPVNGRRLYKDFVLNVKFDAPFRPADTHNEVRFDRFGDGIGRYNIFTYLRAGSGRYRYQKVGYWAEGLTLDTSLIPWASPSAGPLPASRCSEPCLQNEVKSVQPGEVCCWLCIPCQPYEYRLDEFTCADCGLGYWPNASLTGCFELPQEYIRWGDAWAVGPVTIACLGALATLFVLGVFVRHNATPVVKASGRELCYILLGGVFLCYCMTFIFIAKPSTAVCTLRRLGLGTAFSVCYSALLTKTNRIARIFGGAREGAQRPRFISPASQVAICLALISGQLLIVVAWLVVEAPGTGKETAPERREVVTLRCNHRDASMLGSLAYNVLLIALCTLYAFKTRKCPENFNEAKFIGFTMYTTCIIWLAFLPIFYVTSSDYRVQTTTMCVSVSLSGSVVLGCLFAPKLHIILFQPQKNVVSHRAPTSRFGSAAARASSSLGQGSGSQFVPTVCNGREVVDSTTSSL

How the values were obtained:
rats = assay: Reversal of the effect of the mGluR2 PAM JNJ-42153605-induced inhibition of scopolamine-induced hyperlocomotion; assay type: in vivo, rat; conditions: route PO, criterion total distance >1500 cm
human mGlu2 receptor = human mGlu2 receptor (Homo sapiens, UniProt Q14416); assay: [35S]GTPγS binding assay, mGluR2 negative allosteric modulation (membranes from CHO cells transfected with human mGlu2 receptor, glutamate ~EC80 60 μM); conditions: for GTPγS - hmGluR2 anGT pIC50: membranes with human mGlu2 receptor, glutamate ~EC80 (60 μM), pIC50 = -log IC50 (M); for GTPγS - hmGluR2 anGT Emax: relative maximal effect: maximal % inhibition relative to the control glutamate response;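 for all read-outs here: membranes preincubated 30 min at 30 °C with compound plus glutamate, then [35S]GTPγS (0.1 nM) incorporation measured over another 30 min at 30 °C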

Compound | ED50 SCOP JNJ-42153605 (Reversal of the effect of JNJ 42153605 on scopolamine-induced hyperlocomotion) (rats) | GTPγS - hmGluR2 anGT pIC50 (human mGlu2 receptor) | GTPγS - hmGluR2 anGT Emax (human mGlu2 receptor)
Cc1cc(NC(=O)c2cnn3c2C(=O)N(c2ccc(Cl)c(Cl)c2)C[C@@H]3C)ccn1 | 1.26 mg/kg | 8.66 | 
Cc1cc(NC(=O)c2cnn3c2C(=O)N(c2ccc(C(F)F)c(Cl)c2)C[C@@H]3C)ccn1 | 1.99 mg/kg | 8.53 | 
COc1cc(N2C[C@H](C)n3ncc(C(=O)Nc4ccnc(C)c4)c3C2=O)ccc1C(F)(F)F |  | 7.8 | 
Cc1cccnc1NC(=O)c1cnn2c1C(=O)N(c1ccc(C(F)(F)F)cc1)C[C@@H]2C |  | 6.62 | 
Cc1ccnc(NC(=O)c2cnn3c2C(=O)N(c2ccc(C(F)(F)F)cc2)C[C@@H]3C)c1 | >0.63 mg/kg | 7.95 | 
COCC1CN(c2ccc(C(F)(F)F)cc2)C(=O)c2c(C(=O)Nc3ccnc(C)c3)cnn21 (single isomer, unassigned) [94] |  | 7.7 | 115%
COCC1CN(c2ccc(C(F)(F)F)cc2)C(=O)c2c(C(=O)Nc3ccnc(C)c3)cnn21 (racemic) |  | 7.32 | 117%
